Assay results published in ChEMBL document CHEMBL4219138, “Discovery of N-aryl-N'-pyrimidin-4-yl ureas as irreversible L858R/T790M mutant selective epidermal growth factor receptor inhibitors” (Bioorg Med Chem Lett, 2018).

Tests used:
Homo sapiens [1] = species: Homo sapiens; assay: Selectivity ratio of IC50 for wild-type EGFR phosphorylation in human A431 cells to IC50 for EGFR L858R/T790M mutant phosphorylation in human NCI-H1975 cells; format: cell-based
Homo sapiens [2] = species: Homo sapiens; assay: Selectivity ratio of IC50 for recombinant human GST-tagged wild-type EGFR cytoplasmic domain (668 to 1210 residues) to IC50 for recombinant human GST-tagged EGFR L858R/T790M mutant cytoplasmic domain (668 to 1210 residues)

Compound | Ratio IC50 (Homo sapiens [1]) | Ratio IC50 (Homo sapiens [2])
C=CC(=O)Nc1cccc(NC(=O)Nc2ccnc(Nc3ccc(N4CCC(N5CCOCC5)CC4)cc3OC)n2)c1 | 158 | –
C=CC(=O)Nc1cccc(NC(=O)Nc2ccnc(Nc3ccc(N4CCOCC4)cc3OC)n2)c1 | – | 15
